In US20030001133A1, “Phosphate ester base stocks comprising mixed n-butyl/isobutyl phosphate esters and aircraft hydraulic fluids comprising the same” (published 2003) one finds Density, Viscosity and Skin irritation data, which are given here for one compound.

Data set [1] in a line: Density of phosphate esters. The settings on record: 25° C.; phosphate ester without additives.
The nature of data set [2]: Viscosity of phosphate esters. The settings on record: phosphate ester without additives.
Data set [3] is described as follows: Density of blends (base stock plus additives). The settings on record: 25° C.; base stock after adding antioxidants, 6 wt. % acid scavenger, 8 wt. % triaryl phosphate, 14 wt. % VI improver.
A short description of data set [4]: Viscosity of blends (base stock plus additives). Particulars: base stock after adding antioxidants, acid scavenger, triaryl phosphate, VI improver.
For data set [5] the following is noted: stated as known; cited from earlier work.

For the compound `CCCCOP(=O)(OCCCC)OCCCC`, the values for the Density in data set [1] and in data set [3] were 0.9725 and 0.9859, respectively. Further, the Viscosity was 2.55 cSt in data set [2] (40° C.); 124 cSt in data set [2] (−54° C.); 9.12 cSt in data set [4] (40° C.); 3.28 cSt in data set [4] (100° C.); 1013 cSt in data set [4] (−54° C.). Moreover, the Skin irritation entry in data set [5] is on record as “skin irritant”.
